Experimental data as given in patent publication US20060067913A1, “HCV therapy” (priority 2003, published 2006).

Legend:
Format in all cases: in vivo, human
[1] = tested on: HCV; test: Example 1: HCV RNA viral load by semi-quantitative PCR in chronic hepatitis C patients
Protocol: (§1) Eleven patients with chronic HCV infection (measured by HCV serum RNA PCR) and liver disease (measure by elevated levels of Asp and Ala transaminases), were treated with injections of recombinant alpha2 interferon plus 2 mg HEP1/5 ml water solution by mouth twice a day (Treatment Group). Ten patients with chronic HCV infection were treated with recombinant alpha2 interferon alone (Control Group).
(§2) 21 patients (12 women, 9 men) aged from 18 to 55 years, sick with chronic hepatitis C participated in the study at The Gastroenterological Center in the Clinical Infectious Hospital No 1, Moscow. The diagnosis of chronic hepatitis C was based on the presence of specific antibodies to HCV in the blood of the patients during at least 6 months. The presence of HCV RNA in the peripheral blood was determined by PCR (polymerase chain reaction), and in all patients in the trial were in the replication phase of HCV infection. According to clinical data, and to the results of a biochemical study of the blood, in the majority of patients a moderate activity of chronic hepatitis C disease was well established.
(§3) All patients who participated in this investigation were treated with a recombinant alpha interferon (reaferon) at a dose of 3 millions units, 3 times a week. In addition to the background interferon therapy, 11 patients were treated with HEP1, 2 mg orally (the preparation was dissolved in 5 ml of water, held 2-3 min in the mouth, then swallowed) once a day, daily during 3 months. Patients were divided into 2 groups, i.e. the Treatment Group (11 patients who obtained the combination of interferon antiviral therapy with HEP1) and the Control Group (10 people patients who obtained interferon antiviral therapy only).
(§4) Treatment within the framework of the investigation continued for 3 months. […] For the duration of this study, all patients attended the designated doctor not less than 4 times, directly before beginning treatment, and 1, 2 and 3 months after the beginning of treatment. Within the same period, in addition to the clinical inspection, clinical and biochemical analyses of the blood were conducted, and viral load was assessed by HCV RNA in a semi-quantitative PCR assay. The final estimation of efficacy of the treatment was conducted 3 months after the beginning of treatment. The criteria for efficacy were prevalence of symptoms; frequency of an improvement (or normalization) in the activity of hepatic enzymes Al-AT, As-AT, gamma GT; frequency of improvement in the clinical indices of the blood; and results of PCR analysis of HCV RNA (viral replication). Statistical processing of the results of treatment was conducted with the use of a computer program called ‘Statgraphics’.
In all 21 patients investigated, a semi-quantitative PCR estimation of the level of HCV RNA in the blood was performed and the titre of HCV RNA varied from 10^3 to 10^4 at the start of the study. In the Control Group, after 3 months of treatment, in 7 (70%) of 10 people the titres of HCV RNA were reliably lower than the pretreatment levels. HCV RNA ceased to be detected in 2 (20%) of 10 patients. On average, the titre of HCV RNA was reduced by 1.3 log in the Control Group.

[2] = Example 1: clinical symptoms and interferon side-effects in chronic hepatitis C patients
Protocol: as §1, §2, §3, §4
During the course of treatment, the presence and the manifestation of dyspeptic phenomena were evaluated (pain in the right subcostal area, bitterness in the mouth), asthenovegetative symptoms (weakness, irritability) and arthralgia. In the Control Group, the frequency of complaints of expressed general weakness grew from 50% to 80%, irritability from 0 to 100%, and arthralgia from 0 to 90%. Related deterioration in the health of patients during the course of interferon therapy can be explained by the widely known side-effects caused by all preparations of interferon.

[3] = Example 1: biochemical indices of the blood (Al-AT, As-AT, bilirubin)
Protocol: as §1, §2, §3, §4
The patients who participated in the study were sick with chronic hepatitis C, and suffered from a moderate increase in the level of Al-AT and As-AT in the blood, an indication of the destructive inflammation of the hepatocytes. In both groups, after only 1 month of treatment, a significant decrease in the level of Al-AT and As-AT in the blood occurred, which continued during the next month. […] The average values of general bilirubin in both groups of patients were above the upper boundary of normal levels. In the course of treatment, the level of general bilirubin of the blood decreased by 15-20% to normal values.

[4] = Example 1: hematological / immunology indices of the blood
Protocol: as §1, §2, §3, §4
The side-effects of prolonged therapy with recombinant interferon appear in changes in a number of indices of the blood.

[5] = in the course of 3 months of treatment

Interferon only: recombinant alpha interferon (reaferon), 3 millions units, 3 times a week
HCV_RNA Log load ([1]; Before treatment, group mean): 3.5 Log
HCV_RNA Log load ([1]; Month 3, group mean): 2.2 Log
average reduction of titre of HCV RNA ([1]; after 3 months of treatment): 1.3 log
patients in whom HCV RNA ceased to be detected ([1]; after 3 months of treatment): 20%
patients who failed to respond to treatment ([1]; after 3 months of treatment): 30%
patients with titres of HCV RNA reliably lower than pretreatment levels ([1]; after 3 months of treatment): 70%
increase in the viral load during treatment ([1]; in words): in one of these patients the level of virus increased 10 times
Weakness, % of patient group ([2]; Before treatment, group mean): 50%
Bitter taste, % of patient group ([2]; Month 1): 70%
Pain, % of patient group ([2]; Month 1): 80%
Weakness, % of patient group ([2]; Month 1): 50%
aching joints, % of patient group ([2]; Month 1): 0%
Bitter taste, % of patient group ([2]; Month 2): 80%
Pain, % of patient group ([2]; Month 2): 70%
Weakness, % of patient group ([2]; Month 2): 70%
aching joints, % of patient group ([2]; Month 2): 20%
Bitter taste, % of patient group ([2]; Month 3): 80%
Pain, % of patient group ([2]; Month 3): 70%
Weakness, % of patient group ([2]; Month 3): 80%
aching joints, % of patient group ([2]; Month 3): 90%
Bitter taste, % of patient group ([2]; before treatment): 80%
Pain, % of patient group ([2]; before treatment): 70%
aching joints, % of patient group ([2]; before treatment): 0%
frequency of arthralgia ([2]; before treatment): 0%
frequency of complaints of general weakness ([2]; before treatment): 50%
frequency of irritability ([2]; before treatment): 0%
frequency of complaints of pain in the right subcostal area ([2]; during the course of 3 months of treatment): did not change
frequency of arthralgia [2, 5]: 90%
frequency of complaints of general weakness [2, 5]: 80%
frequency of irritability [2, 5]: 100%
Ala Trans ([3]; Before treatment, group mean): 194.7
Asp Trans ([3]; Before treatment, group mean): 97.1
Ala Trans ([3]; Month 1): 90.7
Asp Trans ([3]; Month 1): 72.2
Ala Trans ([3]; Month 2): 62.4
Asp Trans ([3]; Month 2): 53.7
Ala Trans ([3]; Month 3): 71.5
Asp Trans ([3]; Month 3): 63
course of Al-AT and As-AT levels in the blood ([3]; over 3 months, in words): tended to increase again in the third month
transaminase levels in the blood ([3]; summary in words): still had significantly elevated level of transaminases in the blood
Leucocytes ([4]; Before treatment, group mean): 6.09
Lymphocytes ([4]; Before treatment, group mean): 26.3
Monocytes ([4]; Before treatment, group mean): 5.4
Leucocytes ([4]; Month 1): 4.7
Lymphocytes ([4]; Month 1): 29.1
Monocytes ([4]; Month 1): 5.1
Leucocytes ([4]; Month 2): 4.11
Lymphocytes ([4]; Month 2): 31
Monocytes ([4]; Month 2): 6.4
Leucocytes ([4]; Month 3): 4.51
Lymphocytes ([4]; Month 3): 37.5
Monocytes ([4]; Month 3): 4.7
hematological indices (hemoglobin, thrombocytes, neutrophils, granulocytes, eosinophils, lymphocytes, macrophages/monocytes) ([4]; during 3 months of treatment, in words): significant reduction in the maintenance of hemoglobin levels, the number of thrombocytes and especially in the quantity of mature neutrophilic granulocytes
